Laboratory results: ChEMBL document CHEMBL4422655, “Osthenol, a prenylated coumarin, as a monoamine oxidase A inhibitor with high selectivity” (Bioorg Med Chem Lett, 2019)

By UniProt entry, the sequences of proteins in these tests, tags left out.
UniProt P21397, whole entry: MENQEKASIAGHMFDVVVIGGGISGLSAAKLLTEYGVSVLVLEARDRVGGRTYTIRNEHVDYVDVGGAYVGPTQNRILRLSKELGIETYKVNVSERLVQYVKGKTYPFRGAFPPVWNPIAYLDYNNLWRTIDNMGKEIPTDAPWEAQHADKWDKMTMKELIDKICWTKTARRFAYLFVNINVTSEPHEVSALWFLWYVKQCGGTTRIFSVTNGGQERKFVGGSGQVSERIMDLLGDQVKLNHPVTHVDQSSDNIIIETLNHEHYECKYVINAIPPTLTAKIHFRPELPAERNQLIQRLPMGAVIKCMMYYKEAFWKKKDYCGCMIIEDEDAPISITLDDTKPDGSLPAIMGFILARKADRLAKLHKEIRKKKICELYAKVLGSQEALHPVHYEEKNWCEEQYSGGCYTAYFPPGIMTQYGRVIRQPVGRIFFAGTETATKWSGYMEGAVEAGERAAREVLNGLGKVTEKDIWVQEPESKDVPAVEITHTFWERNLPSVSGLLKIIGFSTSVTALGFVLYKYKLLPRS

Target: Amine oxidase [flavin-containing] A (Homo sapiens, UniProt P21397)
Experiment: biochemical

In the case of `C#CCN(C)Cc1ccccc1` [PARGYLINE], the IC50 is reported as > 20 µM.
